Test results reported in patent US9682960B2 (priority 2013, dated 2017).

Tested on: castrated (CX) immature male rats bearing a DHT implant
Conditions: for CX + DHT Antagonistic activity % Inhibition Bulbo / CX + DHT Antagonistic activity % Inhibition SV / CX + DHT Antagonistic activity % Inhibition Prostate: 7 days; for CX + DHT Antagonistic activity % Inhibition Bulbo: bulbocavernosus muscles weight; for CX + DHT Antagonistic activity % Inhibition SV: seminal vesicles weight; for CX + DHT Antagonistic activity % Inhibition Prostate: ventral prostate weight; for antagonistic activity (in words): immature castrated rats supplemented with DHT, 7 days oral

Cc1c(N2C(=O)N(CCCOc3ccc(-c4ccncc4)cc3)C(C)(C)C2=O)ccc(C#N)c1Cl [EM-9300]
CX + DHT Antagonistic activity % Inhibition Bulbo (0.1 mg/rat po): −11 (0.1 mg/rat) % | CX + DHT Antagonistic activity % Inhibition SV (0.1 mg/rat po): 21 (0.1 mg/rat) % | CX + DHT Antagonistic activity % Inhibition Prostate (0.1 mg/rat/po): 13 (0.1 mg/rat) %

CC1(C)C(=O)N(c2ccc(C#N)c(Cl)c2)C(=O)N1CCCOc1ccc(-c2ccncc2)cc1Cl [EM-9150]
CX + DHT Antagonistic activity % Inhibition Prostate (0.1 mg/rat/po): 30 ± 7% | CX + DHT Antagonistic activity % Inhibition Bulbo (0.5 mg/rat/po): 67% | CX + DHT Antagonistic activity % Inhibition SV (0.5 mg/rat/po): 92% | CX + DHT Antagonistic activity % Inhibition Prostate (0.5 mg/rat/po): 55% and 55 ± 5% | antagonistic activity (in words): comparable to bicalutamide and flutamide

CC1(C)C(=O)N(c2ccc(C#N)c(Cl)c2)C(=O)N1CCCOc1ccc(-c2ccncc2)cc1 [EM-9116]
CX + DHT Antagonistic activity % Inhibition Bulbo (0.5 mg/rat/po): 87 ± 2 (n = 2) % | CX + DHT Antagonistic activity % Inhibition SV (0.5 mg/rat/po): 88 ± 2 (n = 2) % | CX + DHT Antagonistic activity % Inhibition Prostate (0.5 mg/rat/po): 57 ± 2 (n = 2) %

Cc1cc(OCCCN2C(=O)N(c3ccc(C#N)c(Cl)c3)C(=O)C2(C)C)ccc1-c1cc[n+]([O-])cc1 [EM-9221]
CX + DHT Antagonistic activity % Inhibition Bulbo (0.5 mg/rat/po): 82% | CX + DHT Antagonistic activity % Inhibition SV (0.5 mg/rat/po): 83% | CX + DHT Antagonistic activity % Inhibition Prostate (0.5 mg/rat/po): 50%

Cc1c(N2C(=O)C(C)(C)N(CCCOc3ccc(-c4ccncc4F)cc3)C2=S)ccc(C#N)c1C(F)(F)F [EM-8974]
CX + DHT Antagonistic activity % Inhibition Bulbo (0.5 mg/rat/po): −96% | CX + DHT Antagonistic activity % Inhibition SV (0.5 mg/rat/po): 11% | CX + DHT Antagonistic activity % Inhibition Prostate (0.5 mg/rat/po): 34%

Cc1c(N2C(=O)C(C)(C)N(CCCOc3ccc(-c4ccncc4)cc3)C2=S)ccc(C#N)c1C(F)(F)F [EM-8691]
CX + DHT Antagonistic activity % Inhibition Bulbo (0.5 mg/rat/po): −115% | CX + DHT Antagonistic activity % Inhibition SV (0.5 mg/rat/po): 14% | CX + DHT Antagonistic activity % Inhibition Prostate (0.5 mg/rat/po): 21%

Cc1c(N2C(=O)N(CCCOc3ccc(-c4cc[n+]([O-])cc4)c(F)c3)C(C)(C)C2=O)ccc(C#N)c1F [EM-9208]
CX + DHT Antagonistic activity % Inhibition Bulbo (0.5 mg/rat/po): 76% | CX + DHT Antagonistic activity % Inhibition SV (0.5 mg/rat/po): 88% | CX + DHT Antagonistic activity % Inhibition Prostate (0.5 mg/rat/po): 52%

CC1(C)C(=O)N(c2ccc(C#N)c(Cl)c2)C(=S)N1CCCOc1ccc(-c2ccncc2)cc1 [EM-9039]
CX + DHT Antagonistic activity % Inhibition Bulbo (0.5 mg/rat/po): 59% | CX + DHT Antagonistic activity % Inhibition SV (0.5 mg/rat/po): 89% | CX + DHT Antagonistic activity % Inhibition Prostate (0.5 mg/rat/po): 62%

CC1(C)C(=O)N(c2ccc(C#N)c(C(F)(F)F)c2)C(=S)N1CCCOc1ccc2ncccc2c1 [EM-8990]
CX + DHT Antagonistic activity % Inhibition Bulbo (0.5 mg/rat/po): 56% | CX + DHT Antagonistic activity % Inhibition SV (0.5 mg/rat/po): 62% | CX + DHT Antagonistic activity % Inhibition Prostate (0.5 mg/rat/po): 37%

CC1(C)C(=O)N(c2ccc(C#N)c(C(F)(F)F)c2)C(=S)N1CCCOc1ccc2cnccc2c1 [EM-9021]
CX + DHT Antagonistic activity % Inhibition Bulbo (0.5 mg/rat/po): 58% | CX + DHT Antagonistic activity % Inhibition SV (0.5 mg/rat/po): 74% | CX + DHT Antagonistic activity % Inhibition Prostate (0.5 mg/rat/po): 42%

CC(C)NCc1ccc(OCCCN2C(=S)N(c3ccc(C#N)c(C(F)(F)F)c3)C(=O)C2(C)C)cc1 [EM-7105, reference compound]
CX + DHT Antagonistic activity % Inhibition Prostate (0.1 mg/rat/po): 20 ± 7% | CX + DHT Antagonistic activity % Inhibition Prostate (0.5 mg/rat/po): 51%

Cc1c(N2C(=O)N(CCCOc3ccc(-c4ccncc4)c(Cl)c3)C(C)(C)C2=O)ccc(C#N)c1Cl [EM-9290]
CX + DHT Antagonistic activity % Inhibition Bulbo (0.5 mg/rat/po): −75% | CX + DHT Antagonistic activity % Inhibition SV (0.5 mg/rat/po): 47% | CX + DHT Antagonistic activity % Inhibition Prostate (0.5 mg/rat/po): 41%

Cc1c(N2C(=O)N(Cc3ccc(-c4cc[n+]([O-])cc4)cc3)C(C)(C)C2=O)ccc(C#N)c1Cl [EM-9345]
CX + DHT Antagonistic activity % Inhibition Bulbo (0.1 mg/rat po): 47 (0.1 mg/rat) % | CX + DHT Antagonistic activity % Inhibition SV (0.1 mg/rat po): 56 (0.1 mg/rat) % | CX + DHT Antagonistic activity % Inhibition Prostate (0.1 mg/rat/po): 31 (0.1 mg/rat) %

CC1(C)C(=O)N(c2ccc(C#N)c(C(F)(F)F)c2)C(=O)N1Cc1ccc(-c2ccncc2)c(F)c1 [EM-9227]
CX + DHT Antagonistic activity % Inhibition Bulbo (0.5 mg/rat/po): 84% | CX + DHT Antagonistic activity % Inhibition SV (0.5 mg/rat/po): 93% | CX + DHT Antagonistic activity % Inhibition Prostate (0.5 mg/rat/po): 61%

Cc1c(N2C(=O)C(C)(C)N(CCCOc3ccc(-c4ccncc4)c(F)c3)C2=S)ccc(C#N)c1C(F)(F)F [EM-8797]
CX + DHT Antagonistic activity % Inhibition Bulbo (0.5 mg/rat/po): −94% | CX + DHT Antagonistic activity % Inhibition SV (0.5 mg/rat/po): −90% | CX + DHT Antagonistic activity % Inhibition Prostate (0.5 mg/rat/po): 28%

COc1cc(-c2ccncc2)ccc1OCCCN1C(=O)N(c2ccc(C#N)c(Cl)c2)C(=O)C1(C)C [EM-9261]
CX + DHT Antagonistic activity % Inhibition Bulbo (0.5 mg/rat/po): 85% | CX + DHT Antagonistic activity % Inhibition SV (0.5 mg/rat/po): 88% | CX + DHT Antagonistic activity % Inhibition Prostate (0.5 mg/rat/po): 57%

CC1(C)C(=O)N(c2ccc(C#N)c(Cl)c2)C(=S)N1CCCOc1ccc(-c2ccncc2)c(F)c1 [EM-9037]
CX + DHT Antagonistic activity % Inhibition Bulbo (0.5 mg/rat/po): 61% | CX + DHT Antagonistic activity % Inhibition SV (0.5 mg/rat/po): 89% | CX + DHT Antagonistic activity % Inhibition Prostate (0.5 mg/rat/po): 71%

CC1(C)C(=O)N(c2ccc(C#N)c(C(F)(F)F)c2)C(=O)N1CCCOc1ccc(-c2ccncc2)nc1 [EM-9111]
CX + DHT Antagonistic activity % Inhibition Bulbo (0.5 mg/rat/po): 63% | CX + DHT Antagonistic activity % Inhibition SV (0.5 mg/rat/po): 87% | CX + DHT Antagonistic activity % Inhibition Prostate (0.5 mg/rat/po): 53%

Cc1ccc2cc(OCCCN3C(=O)N(c4ccc(C#N)c(C(F)(F)F)c4)C(=O)C3(C)C)ccc2n1 [EM-9090]
CX + DHT Antagonistic activity % Inhibition Bulbo (0.5 mg/rat/po): 28% | CX + DHT Antagonistic activity % Inhibition SV (0.5 mg/rat/po): 31% | CX + DHT Antagonistic activity % Inhibition Prostate (0.5 mg/rat/po): 6%

Cc1c(N2C(=O)C(C)(C)N(CCCOc3ccc(-c4ccncc4)c(C(F)(F)F)c3)C2=S)ccc(C#N)c1Cl [EM-8820]
CX + DHT Antagonistic activity % Inhibition Bulbo (0.5 mg/rat/po): −146% | CX + DHT Antagonistic activity % Inhibition SV (0.5 mg/rat/po): 1% | CX + DHT Antagonistic activity % Inhibition Prostate (0.5 mg/rat/po): 26%

CC1(C)C(=O)N(c2ccc(C#N)c(C(F)(F)F)c2)C(=O)N1c1ccc(-c2ccncc2)cc1 [EM-9340]
CX + DHT Antagonistic activity % Inhibition Bulbo (0.5 mg/rat/po): 89% | CX + DHT Antagonistic activity % Inhibition SV (0.5 mg/rat/po): 90% | CX + DHT Antagonistic activity % Inhibition Prostate (0.5 mg/rat/po): 58%

CC1(C)C(=O)N(c2ccc(C#N)c(C(F)(F)F)c2)C(=S)N1CCCOc1ccc(-c2ccncc2)nc1 [EM-9092]
CX + DHT Antagonistic activity % Inhibition Bulbo (0.5 mg/rat/po): 55% | CX + DHT Antagonistic activity % Inhibition SV (0.5 mg/rat/po): 90% | CX + DHT Antagonistic activity % Inhibition Prostate (0.5 mg/rat/po): 57%

Cc1c(N2C(=O)C(C)(C)N(CCCOc3ccc4cnccc4c3)C2=S)ccc(C#N)c1Cl [EM-8869]
CX + DHT Antagonistic activity % Inhibition Bulbo (0.5 mg/rat/po): 0% | CX + DHT Antagonistic activity % Inhibition SV (0.5 mg/rat/po): 3% | CX + DHT Antagonistic activity % Inhibition Prostate (0.5 mg/rat/po): 1%

CC1(C)C(=O)N(c2ccc(C#N)c(C(F)(F)F)c2)CC(=O)N1CCCOc1ccc(-c2ccncc2)cc1 [EM-9126]
CX + DHT Antagonistic activity % Inhibition Bulbo (0.5 mg/rat/po): 90% | CX + DHT Antagonistic activity % Inhibition SV (0.5 mg/rat/po): 79% | CX + DHT Antagonistic activity % Inhibition Prostate (0.5 mg/rat/po): 47%

Cc1ccc2cc(OCCCN3C(=O)N(c4ccc(C#N)c(C(F)(F)F)c4)C(=O)C3(C)C)ccc2[n+]1[O-] [EM-9093]
CX + DHT Antagonistic activity % Inhibition Bulbo (0.2 mg/rat po): 21 (0.2 mg/ rat) % | CX + DHT Antagonistic activity % Inhibition SV (0.2 mg/rat po): 47 (0.2 mg/ rat) % | CX + DHT Antagonistic activity % Inhibition Prostate (0.2 mg/rat po): 20 (0.2 mg/ rat) %

CC1(C)C(=O)N(c2ccc(C#N)c(Cl)c2)C(=O)N1CCCOc1ccc(-c2cc[n+]([O-])cc2)cc1Cl [EM-9156]
CX + DHT Antagonistic activity % Inhibition Prostate (0.1 mg/rat/po): 27 ± 3% | CX + DHT Antagonistic activity % Inhibition Bulbo (0.3 mg/rat po): 57 (0.3 mg/ rat) % | CX + DHT Antagonistic activity % Inhibition SV (0.3 mg/rat po): 89 (0.3 mg/ rat) % | CX + DHT Antagonistic activity % Inhibition Prostate (0.3 mg/rat po): 55 (0.3 mg/ rat) % | antagonistic activity (in words): comparable to bicalutamide and flutamide

CC1(C)C(=O)N(c2ccc(C#N)c(C(F)(F)F)c2)C(=O)N1CCCOc1ccc(-c2ccncc2)c(F)c1 [EM-9066]
CX + DHT Antagonistic activity % Inhibition Bulbo (0.5 mg/rat/po): 64 ± 15 (n = 2) % | CX + DHT Antagonistic activity % Inhibition SV (0.5 mg/rat/po): 90 ± 1 (n = 2) % | CX + DHT Antagonistic activity % Inhibition Prostate (0.5 mg/rat/po): 50 ± 1 (n = 2) %

Several values for one entry are separate records, joined by “and”; a condition that tells them apart may be missing. Equal entries are not always repeated. Where two headings read alike, the source gives them in different places.
